Assay results taken from US20260132140A1, “IMIDAZOLYL-AMINO-PYRAZINE-CARBONITRILS AS CHK-1 INHIBITORS” (BenevolentAI Bio Limited, priority 2022, published 2026).

Test system: 373 human wild-type kinases
Assay: Kinome selectivity, Eurofins KinaseProfiler kinase screen
Type: biochemical
Conditions: panel of 373 human wild-type kinases, approximately ATP Km, top concentration 10 μM
From the text: The radiometric kinase activity assays were run at approximately the ATP Km for each kinase.

Row | SMILES | Number of 372 kinases inhibited relative to Chk1 IC50 Within 10-fold | Number of 372 kinases inhibited relative to Chk1 IC50 Within 100-fold
1 | CN(C)[C@@H]1CCN(c2ccc(-n3cnc(Nc4cnc(C#N)cn4)c3)nc2)C1 [Example 50, (R)-5-((1-(5-(3-(Dimethylamino)pyrrolidin-1-yl)pyridin-2-yl)-1H-imidazol-4-yl)amino)pyrazine-2-carbonitrile] | 1 | 5
2 | C[C@@H]1C[C@@H](N2CCC2)CN1c1ccc(-n2cnc(Nc3cnc(C#N)cn3)c2)cc1 [Example 98, 5-((1-(4-((2R,4R)-4-(Azetidin-1-yl)-2-methylpyrrolidin-1-yl)phenyl)-1H-imidazol-4-yl)amino)pyrazine-2-carbonitrile] | 1 | 8
